By UniProt entry, the sequences of proteins in these tests, tags left out.
UniProt Q99835, whole entry: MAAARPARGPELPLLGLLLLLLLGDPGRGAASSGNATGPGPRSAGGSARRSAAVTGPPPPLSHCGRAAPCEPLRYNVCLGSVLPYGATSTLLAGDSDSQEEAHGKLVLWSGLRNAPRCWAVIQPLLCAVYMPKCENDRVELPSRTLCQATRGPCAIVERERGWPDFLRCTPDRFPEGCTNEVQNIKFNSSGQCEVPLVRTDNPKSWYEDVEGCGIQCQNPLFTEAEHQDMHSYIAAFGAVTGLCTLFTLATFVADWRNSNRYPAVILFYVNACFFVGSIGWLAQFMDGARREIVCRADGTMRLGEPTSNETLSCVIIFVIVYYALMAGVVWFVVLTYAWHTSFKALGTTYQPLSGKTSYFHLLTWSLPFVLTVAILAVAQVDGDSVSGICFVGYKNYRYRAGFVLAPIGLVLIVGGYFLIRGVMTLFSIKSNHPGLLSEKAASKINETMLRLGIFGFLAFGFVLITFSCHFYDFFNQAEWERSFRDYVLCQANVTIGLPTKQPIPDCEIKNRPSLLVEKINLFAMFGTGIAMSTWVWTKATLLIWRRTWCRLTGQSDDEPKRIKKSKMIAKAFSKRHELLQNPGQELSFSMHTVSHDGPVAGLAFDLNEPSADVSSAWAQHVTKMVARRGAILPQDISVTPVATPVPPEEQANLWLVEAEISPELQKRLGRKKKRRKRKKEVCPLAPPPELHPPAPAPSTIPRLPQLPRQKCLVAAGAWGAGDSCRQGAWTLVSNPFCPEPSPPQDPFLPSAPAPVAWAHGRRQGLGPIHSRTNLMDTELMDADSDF

The experiment has as its target Protein smoothened (Homo sapiens, UniProt Q99835). Briefly: Inhibition of human SMO expressed in HEPM cells. The format is cell-based.
For the compound `C[C@H]1CN(c2nnc(-c3ccc(F)cc3)c3ccccc23)CCN1C(=O)c1ccccc1`, 0.0118 µM corresponded to half-maximal inhibition (IC50). The result for `C[C@H]1CN(c2nnc(-c3ccccc3)c3ccccc23)CCN1C(=O)c1ccccc1` reads 0.0053 µM.

In the case of `C[C@H]1CN(c2nnc(-c3ccc(Cl)cc3)c3ccccc23)CCN1C(=O)c1ccccc1`, the IC50 (in general, the concentration that inhibits the measured activity by half) turned out to be 0.007 µM. Take `Cc1ccc(-c2nnc(N3CCN(C(=O)c4ccccc4)[C@@H](C)C3)c3ccccc23)cc1`: the IC50 was found to be 0.0032 µM. The figure for `Cc1ccccc1-c1nnc(N2CCN(C(=O)c3ccccc3)CC2)c2ccccc12` is 0.015 µM; for `COc1cccc(-c2nnc(N3CCN(C(=O)c4ccccc4)CC3)c3ccccc23)c1` it is 0.02 µM. For `O=C(c1nccs1)N1CCN(c2nnc(-c3ccccc3)c3ccccc23)CC1`, the IC50 was determined as 0.0095 µM. `C[C@H]1CN(c2nnc(-c3ccc(C(F)(F)F)cc3)c3ccccc23)CCN1C(=O)c1ccccc1` yielded an IC50 of 0.0036 µM. The result for `C[C@H]1CN(c2nnc(-c3ccccn3)c3ccccc23)CCN1C(=O)c1ccccc1` reads 0.11 µM; that for `COc1ccc(-c2nnc(N3CCN(C(=O)c4ccccc4)CC3)c3ccccc23)cc1`, 0.015 µM. For `O=C(c1ccccc1)N1CCN(c2nnc(-c3ccc(F)cc3)c3ccccc23)CC1`, it took 0.0108 µM to reach half-maximal inhibition (IC50).

In turn, `C[C@@H]1CN(C(=O)c2ccccc2)CCN1c1nnc(-c2ccc(CO)cc2)c2ccccc12` showed an IC50 of 0.0027 µM.

`C[C@H]1CN(c2nnc(-c3ncco3)c3ccccc23)CCN1C(=O)c1ccccc1` returned an IC50 of 2.7 µM.

In turn, `C[C@@H]1CN(c2nnc(-c3ccccc3)c3ccccc23)CCN1C(=O)c1ccccc1` returned an IC50 of 0.013 µM.

`C[C@H]1CN(C(=O)c2ccccc2)CCN1c1nnc(-c2ccccc2)c2ccccc12` showed an IC50 of 0.011 µM. The result for `O=C(c1ccccc1)N1CCN(c2nnc(-c3ccccc3)c3ccccc23)CC1` reads 0.019 µM; that for `O=C(c1ccccc1)N1CCN(c2nnc(-c3ccc(Cl)c(Cl)c3)c3ccccc23)CC1`, 0.0173 µM; that for `C[C@@H]1CN(C(=O)c2ccccc2)CCN1c1nnc(-c2ccc(C3CC3)cc2)c2ccccc12`, 0.0023 µM. Compound `C[C@H]1CN(c2nnc(-c3cccnc3)c3ccccc23)CCN1C(=O)c1ccccc1` had an IC50 of 0.213 µM. In the case of `Cc1ccc(-c2nnc(N3CCN(C(=O)c4ccccc4)CC3)c3ccccc23)cc1`, 0.0044 µM corresponded to half-maximal inhibition (IC50). The figure for `C[C@@H]1CN(C(=O)c2ccccc2)CCN1c1nnc(-c2ccc(N(C)C)cc2)c2ccccc12` is 0.0052 µM; for `C[C@@H]1CN(C(=O)c2ccccc2)CCN1c1nnc(-c2ccc(Cl)cc2)c2ccccc12` it is 0.0007 µM. With `O=C(c1ccccc1)N1CCN(c2nnc(-c3ccccc3Cl)c3ccccc23)CC1`, the IC50 was 0.0203 µM. Consider `CC(C)c1ccc(-c2nnc(N3CCN(C(=O)c4ccccc4)C[C@H]3C)c3ccccc23)cc1`, for which it took 0.0073 µM to reach half-maximal inhibition (IC50). `C[C@@H]1CN(C(=O)c2ccccc2)CCN1c1nnc(-c2ccc(C#N)cc2)c2ccccc12` registered an IC50 of 0.0031 µM.

In turn, `C[C@H]1CN(c2nnc(-c3ccncc3)c3ccccc23)CCN1C(=O)c1ccccc1` showed an IC50 of 0.096 µM.

The compound `CC(=O)N1CCN(c2nnc(-c3ccccc3)c3ccccc23)CC1` had an IC50 of 0.091 µM. `C[C@@H]1CN(C(=O)c2ccccc2)CCN1c1nnc(-c2ccc(C(F)(F)F)cc2)c2ccccc12` yielded an IC50 of 0.0028 µM. The figure for `C[C@H]1CN(c2nnc(N3CC=CC=N3)c3ccccc23)CCN1C(=O)c1ccccc1` is 2.34 µM; for `O=C(c1ccccc1)N1CCN(c2nnc(-c3ccc(Cl)cc3)c3ccccc23)CC1` it is 0.0052 µM. The compound `N#Cc1cccc(-c2nnc(N3CCN(C(=O)c4ccccc4)CC3)c3ccccc23)c1` displayed an IC50 of 0.212 µM. In turn, `C[C@@H]1CN(C(=O)c2ccccc2)CCN1c1nnc(-c2ccccc2)c2ccccc12` came in with an IC50 of 0.0022 µM.

`C[C@@H]1CN(C(=O)c2ccccc2)CCN1c1nnc(-c2ccc(C(C)(C)C)cc2)c2ccccc12`: the IC50 came to 0.0101 µM. As to `Cc1ccc(-c2nnc(N3CCN(C(=O)c4ccccc4)C[C@H]3C)c3ccccc23)cc1`, the IC50 was determined as 0.0004 µM.

(Values after ChEMBL document CHEMBL1158625, “Design of 1-piperazinyl-4-arylphthalazines as potent Smoothened antagonists” (Bioorg Med Chem Lett, 2010).)
